Only a part is listed here, and it is no random draw. Active and inactive are the calls of the source. Cut-off read from the data, not from the text of the source: active = activation above about 30% (passing the limit was not always enough); inconclusive = no clear call, values can overlap the other calls.

This assay can be described thus: activation of beta-catenin signaling reporter – cell-based, plate reader, single point, primary screen (AID 743398).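 Note: 0% = neutral control wells and 100% = positive control wells.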 As to conditions: Wnt/beta-catenin reporter cell assay, activator, at 9.35 µM, stronger effect = higher value.
As for `COc1ccccc1OP(C)(=O)Nc1cc(Cl)ccc1C` (stereo not given), the activation was inactive: -0.536%.
Then `COc1ccc(OP(C)(=O)Nc2cccc(F)c2)cc1` (stereo not given), with inactive: -8.1%.
For `Cc1cc(C)cc(OP(C)(N)=O)c1` (stereo not given), the activation was inactive: 1.76%.
With `O=[N+]([O-])c1cc([N+](=O)[O-])c(Nc2cccnc2)c([N+](=O)[O-])c1`, the activation is inactive: -0.869%.
Under `CC(C)(C)c1ccc(OP(C)(=O)Nc2ccc(SC(F)(F)F)cc2)cc1` (stereo not given) stands inactive: -7.09%.
Turning to `Cc1cccc(C)c1OP(C)(N)=O` (stereo not given), the activation was inactive: 0.523%.
`O=[N+]([O-])c1ccc2c(c1)C=Nc1ccccc1O2`: the activation is inactive: -2.26%.
For `COc1ccccc1-c1ccccn1.O=[N+]([O-])c1cc([N+](=O)[O-])c(O)c([N+](=O)[O-])c1`, the activation was inactive: 0.136%.
For the molecule `CCN(CC)CCCOC(=O)C(O)(c1ccccc1)c1ccccc1`, the activation was inactive: -0.666%.
For `CP(=O)(Nc1cccc(Br)c1)Oc1ccccc1` (stereo not given), the activation was inactive: -0.202%.
For the molecule `COc1ccccc1OP(C)(=O)Nc1cccc(Br)c1` (stereo not given), the activation was inactive: 4.25%.
As for `Cc1cc(C)cc(OP(C)(=O)Nc2ccc(C)cc2C)c1` (stereo not given), the activation was inactive: -3.25%.
On to `CCOC(=O)c1ccc(NP(C)(=O)Oc2cc(C)cc(C)c2)cc1` (stereo not given), for which the activation is inactive: -1.01%.
On to `O=C(O)c1cccc(Nc2c([N+](=O)[O-])cc([N+](=O)[O-])cc2[N+](=O)[O-])c1`, for which the activation is inactive: 8.96%.
Take `COc1ccccc1OP(C)(=O)Nc1c(C)cccc1C` (stereo not given): the activation was inactive: -1.65%.
Take `CN1CCCCC1COC(=O)C1(O)c2ccccc2CCc2ccccc21` (stereo not given): the activation is inactive: -2.5%.
As for `CCCOc1ccc(NP(C)(=O)Oc2ccc(Cl)cc2)cc1` (stereo not given), the activation is inactive: -1.34%.
Regarding `CP(=O)(Nc1ccc(SC(F)(F)F)cc1)Oc1ccccc1` (stereo not given), the activation was inactive: -6.72%.
For the molecule `COc1ccc(-c2ccccn2)cc1.O=[N+]([O-])c1cc([N+](=O)[O-])c(O)c([N+](=O)[O-])c1`, the activation was inactive: -0.764%.
Consider `O=[N+]([O-])c1cc([N+](=O)[O-])c(Nc2nnnn2CCO)c([N+](=O)[O-])c1`, for which the activation is inactive: -1.74%.
Take `CCOC(=O)C(CC)C1=NC(C)(C)Cc2ccccc21.O=[N+]([O-])c1cc([N+](=O)[O-])c(O)c([N+](=O)[O-])c1` (stereo not given): the activation was inactive: -2.22%.
Take `O=[N+]([O-])c1cc([N+](=O)[O-])c(-c2cnn(-c3ccccc3)c2)c([N+](=O)[O-])c1`: the activation was inactive: 3.03%.
Under `Cc1nc2ccc3ccccc3c2s1.O=[N+]([O-])c1cc([N+](=O)[O-])c(O)c([N+](=O)[O-])c1` stands inactive: -5.05%.
Regarding `O=[N+]([O-])c1cc([N+](=O)[O-])c(-n2nnc3ccccc32)c([N+](=O)[O-])c1`, the activation is inactive: -0.797%.
Turning to `CN(Cc1cccnc1)C(=O)COc1ccc(Cl)c(Cl)c1.O=[N+]([O-])c1cc([N+](=O)[O-])c(O)c([N+](=O)[O-])c1`, the activation is inactive: -1.01%.

These data come from PubChem BioAssay AID743398 (Broad Institute, 2014).
